The text below walks through data of patent US6440434B1, “Skin care composition” (Conopco, Inc., priority 1999, dated 2002).

This test deals with T1, lecithin retinol acyl transferase (LRAT) (Bos taurus, UniProt Q9BGL2).
T1 sequence (Q9BGL2 1-230): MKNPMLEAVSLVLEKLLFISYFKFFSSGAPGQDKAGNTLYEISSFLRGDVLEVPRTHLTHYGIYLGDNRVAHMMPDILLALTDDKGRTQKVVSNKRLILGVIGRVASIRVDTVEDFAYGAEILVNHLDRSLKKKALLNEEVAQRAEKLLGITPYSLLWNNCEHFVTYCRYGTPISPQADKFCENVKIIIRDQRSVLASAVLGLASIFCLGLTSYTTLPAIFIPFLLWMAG
Kind of test: in vitro Microsomal Assay of retinol esterification, LRAT catalyzed (retinyl laurate). Format: biochemical, bovine. The conditions noted are these: 100 μM test compound; solvent blank = 100% ester formation.

With “delta methyl ionone [reference compound]”, the “% INHIBITION, LRAT” value was 10%.

On to dimethyl ionone [reference compound], for which the “% INHIBITION, LRAT” value amounted to 9%.
